According to patent publication US12533361B2, “Use of polaprezinc in preparing drug for treating castration-resistant prostate cancer” (Jiangnan University, priority 2021, dated 2026):

System: AR
Test: Immunohistochemistry of AR in prostate tissue sections (Example 4)
Assay type: in vivo, mouse
Conditions: 30 days administration after relapse, Enza 10 mg/Kg, Pola 20 mg/Kg, combined 10 + 20 mg/Kg, NC group 94
Experimental: After the relapse of the CRPC caused by drug resistance occurred (the mice were 6 month old), the mice were randomly divided into a normal control group (always gavaged with a solvent), an Enza single group, a Pola single group, and an Enza and Pola combined group. The mice were correspondingly gavaged. The mice were gavaged with 10 mg/Kg of Enza each time in the Enza single group, 20 mg/Kg of Pola each time in the Pola single group, and 10 mg/Kg of Enza and 20 mg/Kg of Pola each time in the Enza and Pola combined group once every three days for a total of 30 days. The mice were sacrificed and their prostate cancers were photographed, weighed and subjected to immunohistochemistry.
2. Results of effects of Enza, Pola and combined use thereof on a mouse model of prostate cancer with overexpression of C-MYC after resistance generated by continuous administration of Enza are shown in FIGS. 4A-4C and FIG. 5A-5B.

CNC(=O)c1ccc(N2C(=S)N(c3ccc(C#N)c(C(F)(F)F)c3)C(=O)C2(C)C)cc1F [Enza, enzalutamide]
Expression amount of AR/%: 71.5%
